Molecular target: Rhesus PDE2A3 (Macaca mulatta, UniProt B3VTJ2)
Test: PDE2 fluorescence polarization (IMAP FP) inhibition assay, rhesus enzyme
Type: biochemical, rhesus macaque
Conditions: Rhesus PDE2, Lab B
Description: The activity of the compounds in accordance with the present invention as PDE2 inhibitors may be readily determined using a fluorescence polarization (FP) methodology (Huang, W., et al., J. Biomol Screen, 2002, 7: 215).
In a typical experiment the PDE2 inhibitory activity of the compounds of the present invention was determined in accordance with the following experimental method. Rhesus PDE2A3 was amplified from rhesus macaque brain cDNA (Biochain Institute, Hayward, Calif.) using primers based on human PDE2A sequence (accession NM_002599.3) where the forward primer containing a Kozak consensus was 5′-[…]-3′ and the reverse primer was 5′-[…]-3′. Amplification with Easy-A High-Fidelity PCR cloning enzyme (Stratagene, La Jolla, Calif.) was 95° C. for 2 minutes followed by thirty three cycles of 95° C. for 40 seconds, 52° C. for 30 seconds, and 72° C. for 2 minutes 48 seconds. Final extension was 72° C. for 7 minutes. The PCR product was TA cloned into pcDNA3.3-TOPO (Invitrogen, Carlsbad, Calif.) according to standard protocol. […] The fluorescence polarization assay for cyclic nucleotide phosphodiesterases was performed using an IMAP® FP kit supplied by Molecular Devices, Sunnyvale, Calif. […] 0% of inhibition is determined by using DMSO (1% final concentrations).
A Labcyte Echo 555 (Labcyte, Sunnyvale, Calif.) is used to dispense 200 nL from each well of the titration plate to the 384 well assay plate. […] The plate was incubated at room temperature for at least one hour prior to determining the fluorescence polarization (FP). The parallel and perpendicular fluorescence of each well of the plate was measured using a Tecan Genios Pro plate reader (Tecan, Switzerland) or Perkin Elmer EnVision™ plate reader (Waltham, Mass.). Fluorescence polarization (mP) was calculated from the parallel (S) and perpendicular (P) fluorescence of each sample well and the analogous values for the median control well, containing only substrate (So and Po), using the following equation: Polarization (mP)=1000*(S/So−P/Po)/(S/So+P/Po).

Amino acid sequences for entries named in this document (tags omitted). Chains listed by the source or under a name are the forms on record and can include a tag or linker. Residues count along the entry.
UniProt B3VTJ2, 1-941: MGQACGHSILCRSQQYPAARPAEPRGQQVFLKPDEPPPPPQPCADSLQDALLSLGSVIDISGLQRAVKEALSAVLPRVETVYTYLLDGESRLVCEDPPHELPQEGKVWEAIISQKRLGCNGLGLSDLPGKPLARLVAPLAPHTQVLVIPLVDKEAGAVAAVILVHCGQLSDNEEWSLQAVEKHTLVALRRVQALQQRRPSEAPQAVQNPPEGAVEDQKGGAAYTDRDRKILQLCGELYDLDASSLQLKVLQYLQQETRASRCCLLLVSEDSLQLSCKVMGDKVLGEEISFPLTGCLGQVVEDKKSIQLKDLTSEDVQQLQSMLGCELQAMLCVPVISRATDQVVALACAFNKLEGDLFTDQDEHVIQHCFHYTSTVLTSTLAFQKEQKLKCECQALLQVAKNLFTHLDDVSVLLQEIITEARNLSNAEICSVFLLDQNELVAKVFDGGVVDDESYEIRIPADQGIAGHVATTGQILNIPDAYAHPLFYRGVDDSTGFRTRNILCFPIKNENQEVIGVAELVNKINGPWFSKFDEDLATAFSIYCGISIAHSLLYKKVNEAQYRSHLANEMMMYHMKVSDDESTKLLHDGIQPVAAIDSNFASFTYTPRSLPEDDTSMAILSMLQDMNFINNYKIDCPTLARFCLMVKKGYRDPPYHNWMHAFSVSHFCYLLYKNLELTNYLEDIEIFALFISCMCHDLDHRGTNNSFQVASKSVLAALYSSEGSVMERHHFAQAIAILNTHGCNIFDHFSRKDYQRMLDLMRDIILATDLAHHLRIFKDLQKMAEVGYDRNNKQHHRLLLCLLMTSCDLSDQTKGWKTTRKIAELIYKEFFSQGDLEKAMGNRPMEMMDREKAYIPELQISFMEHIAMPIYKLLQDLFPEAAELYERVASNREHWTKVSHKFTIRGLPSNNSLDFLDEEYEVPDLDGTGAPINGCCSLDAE
UniProt O00408, other isoform, or with tags, fused parts or gaps: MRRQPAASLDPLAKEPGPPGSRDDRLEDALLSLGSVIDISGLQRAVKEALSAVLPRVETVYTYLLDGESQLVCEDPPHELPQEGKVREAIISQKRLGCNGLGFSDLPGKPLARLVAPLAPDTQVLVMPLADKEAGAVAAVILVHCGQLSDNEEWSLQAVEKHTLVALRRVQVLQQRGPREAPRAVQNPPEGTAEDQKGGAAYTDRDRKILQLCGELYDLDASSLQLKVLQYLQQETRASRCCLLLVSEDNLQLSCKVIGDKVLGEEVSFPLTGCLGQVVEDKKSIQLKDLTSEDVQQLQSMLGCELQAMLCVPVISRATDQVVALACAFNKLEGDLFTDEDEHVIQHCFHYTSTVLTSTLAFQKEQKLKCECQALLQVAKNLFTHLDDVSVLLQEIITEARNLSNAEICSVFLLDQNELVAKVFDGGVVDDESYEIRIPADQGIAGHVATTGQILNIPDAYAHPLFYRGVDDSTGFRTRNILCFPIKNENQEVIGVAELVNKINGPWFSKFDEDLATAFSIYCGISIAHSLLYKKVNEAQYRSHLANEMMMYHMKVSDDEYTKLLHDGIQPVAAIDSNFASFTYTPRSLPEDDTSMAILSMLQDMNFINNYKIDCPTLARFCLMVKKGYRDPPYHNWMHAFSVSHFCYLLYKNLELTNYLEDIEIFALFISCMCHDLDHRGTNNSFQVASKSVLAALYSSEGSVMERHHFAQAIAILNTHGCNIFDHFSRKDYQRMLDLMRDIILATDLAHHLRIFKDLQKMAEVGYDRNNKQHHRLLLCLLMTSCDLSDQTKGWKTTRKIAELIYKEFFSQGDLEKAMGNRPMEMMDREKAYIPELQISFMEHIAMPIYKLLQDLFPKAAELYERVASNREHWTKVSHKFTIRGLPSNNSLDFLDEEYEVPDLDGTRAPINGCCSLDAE

| Structure (SMILES) | Ki [nM] |
| --- | --- |
| Cc1nc(C(=O)NC(c2ccc(C(F)(F)F)cc2)C(C)(C)O)cc(=O)[nH]1 (single isomer, unassigned) [Example 725, N-{2-hydroxy-2-methyl-1-[4-(trifluoromethyl)phenyl]propyl}-2-methyl-6-oxo-1,6-dihydropyrimidine-4-carboxamide] | > 2970 |
| Cc1nc(C(=O)NC(c2ccc(C(F)(F)F)cc2)C(C)(C)O)cc(=O)[nH]1 (single isomer, unassigned) [Example 726, N-{2-hydroxy-2-methyl-1-[4-(trifluoromethyl)phenyl]propyl}-2-methyl-6-oxo-1,6-dihydropyrimidine-4-carboxamide] | 11 |
| Cc1nc(C(=O)NC(c2ccc(C(F)(F)F)cc2)C(C)(C)O)cc(=O)[nH]1 (stereo not drawn) [Example 722, N-{2-hydroxy-2-methyl-1-[4-(trifluoromethyl)phenyl]propyl}-2-methyl-6-oxo-1,6-dihydropyrimidine-4-carboxamide] | 13 |

Molecular target: human PDE2A1 (Homo sapiens (Human), UniProt O00408)
Test: IMAP FP PDE selectivity panel, human PDE2A1
Type: biochemical
Conditions: Human PDE2, Lab B
Description: Selectivity for PDE2, as compared to other PDE families, was assessed using the IMAP® technology. Human PDE 10A2 enzyme was prepared from cytosolic fractions of transiently transfected HEK cells. All other PDE's were GST Tag human enzyme expressed in insect cells and were obtained from BPS Bioscience (San Diego, Calif.): PDE1A (Cat#60010), human PDE2A1 (Cat#60020), PDE3A (Cat#60030), PDE4A1A (Cat#60040), PDE5A1 (Cat#60050), PDE6C (Cat#60060), PDE7A (Cat#60070), PDE8A1 (Cat#60080), PDE9A2 (Cat#60090), PDE11A4 (Cat#60110).
Assays for PDE 1 through 11 were performed in parallel at room temperature in 384-well microtiter plates with an incubation volume of 20.2 μL. Solutions of test compounds were prepared in DMSO and serially diluted with DMSO to yield 30 μL of each of ten solutions differing by 3-fold in concentration, at 32 serial dilutions per plate. […] A Labcyte POD 810 (Labcyte, Sunnyvale, Calif.) was used to dispense 200 nL from each well of the titration plate to make eleven copies of the assay plate for each titration, one copy for each PDE enzyme. […] The plates were incubated at room temperature for one hour, then the parallel and perpendicular fluorescence was measured using a Tecan Genios Pro plate reader (Tecan, Switzerland). The apparent inhibition constants for the compounds against all 11 PDE's was determined from the parallel and perpendicular fluorescent readings as described for PDE10 FP assay using the following apparent KM values for each enzyme and substrate combination: PDE1A (FAM cGMP) 70 nM, human PDE2A1 (FAM cAMP) 10,000 nM, PDE3A (FAM cAMP) 50 nM, PDE4A1A (FAM cAMP) 1500 nM, PDE5A1 (FAM cGMP) 400 nM, PDE6C (FAM cGMP) 700 nM, PDE7A (FAM cAMP) 150 nM, PDE8A1 (FAM cAMP) 50 nM, PDE9A2 (FAM cGMP) 60 nM, PDE10A2 (FAM cAMP) 150 nM, PDE11A4 (FAM cAMP) 1000 nM. The intrinsic PDE2 inhibitory activity of a compound which may be used in accordance with the present invention may be determined by these assays.

| Structure (SMILES) | Ki [nM] |
| --- | --- |
| Cc1nc(C(=O)N[C@]2(c3ccc(C(C)(C)C)cc3)C[C@H]2C)cc(=O)[nH]1 (single isomer, unassigned) [Example 666, N-[1-(4-tert-butylphenyl)-2-methylcyclopropyl]-2-methyl-6-oxo-1,6-dihydropyrimidine-4-carboxamide] | 329 |
| Cc1nc(C(=O)N[C@]2(c3ccc(C(C)(C)C)cc3)C[C@H]2C)cc(=O)[nH]1 (single isomer, unassigned) [Example 667, N-[1-(4-tert-butylphenyl)-2-methylcyclopropyl]-2-methyl-6-oxo-1,6-dihydropyrimidine-4-carboxamide] | 10 |
| Cc1nc(C(=O)NC(c2ccc(C(F)(F)F)cc2)C(C)(C)O)cc(=O)[nH]1 (stereo not drawn) [Example 722, N-{2-hydroxy-2-methyl-1-[4-(trifluoromethyl)phenyl]propyl}-2-methyl-6-oxo-1,6-dihydropyrimidine-4-carboxamide] | 17 |
